# Measured values from patent US10385005B2, “Compositions and methods for glucose transport inhibition” (OHIO UNIVERSITY, priority 2010, dated 2019).
# System: HeLa cells
# Experiment: Glucose uptake assay (3H 2-DG), HeLa
# Format: cell-based, human
# Conditions: 100 nM, RKO, and MCF-7 cancer cells, FIG. 7
# Method: Cells were treated with α-PGG for 20 minutes before ^3H-labeled 2-DG. […] Samples: 1. Mock; 2. […] WZB-25 (30 μM); 5. WZB-26 (30 μM); and 6. WZB-27 (30 μM). Compounds 1a and 2a were initially prepared as potential anti-diabetic analogs of α-PGG (FIG. 1). Given the tight SAR of this class of compounds, it was hypothesized that a more rigid scaffold (i.e., a benzene ring) might enhance the activity. […] Error bars in FIG. 8 represent standard deviations of the measurements. Samples were done in triplicates and the experiment was repeated three times.
substance,measurement,value
Insulin,effect on glucose uptake,had no effect on the glucose uptake
